Assay results taken from patent US5612476A, “Anti-endotoxin compounds” (priority 1995, dated 1997).

Test system: HIV LTR
Assay: Suppression of LPS-stimulated HIV LTR activation in stably transfected U938 cell line (HIV-1 LTR-CAT)
Conditions: for example Salmonella typhimurium, in words

CCCCCC/C=C\CCCC(=O)O[C@H](CCCCCCCC)CCO[C@@H]1[C@@H](NC(=O)CC(=O)CCCCCCCCCCC)[C@H](OC[C@H]2O[C@H](OP(=O)(O)O)[C@H](NC(=O)CC(=O)CCCCCCCCCCC)[C@@H](OCC[C@H](O)CCCCCCCC)[C@@H]2O)O[C@H](COC)[C@H]1OP(=O)(O)O [Analog B464-32] was tested, and the “inhibition of activation of the HIV-LTR mediated by LPS of other Gram-negative bacteria” value was “similarly inhibited activation of the HIV-LTR”.
